According to patent US12153062B2, “Method for estimating physical property of aqueous sample” (Kao Corporation, priority 2018, dated 2024):

Columns and labels:
[1] = Amount of phase-changing probe 2-EHDG required until phase structure changes (Wm phase to Om phase + W phase); liquid physical property index read from calibration curve; assay type: physicochemical; conditions: surfactant 100 mmol/kg, solvent BDG 5 mass %, C16 isoparaffin 2 g per 100 g, no inorganic salt; for Quantitative value (g) of phase-changing probe (2-EHDG): 25° C., calibration curve 10
[2] = as above; assay type: physicochemical; conditions: 100 mmol/kg; oil component Cyclohexane; calibration curve 7
Procedure: Using the following components, precursor samples and standard samples for preparing calibration curves were prepared, and using any of the following phase-changing probes, an amount of the phase-changing probe required until a phase structure of a standard sample changed was quantified for each of a plurality of surfactants (G). The calibration curves were prepared from the plurality of quantitative values obtained. • Surfactant (G): a plurality of polyoxyethylene lauryl ethers with different average numbers of added moles of the ethylene oxide • Oil component: an isoparaffin with an average number of carbons of 16 (hereinafter, referred to as C16 isoparaffin) • Phase-changing probe: 2-ethylhexyl diglycol or butyldiglycol […]
The amount of the oil component added per 100 g of each precursor sample was determined to be 4 g by assigning 50 to X in the aforementioned formula (I).
For this standard sample, 2-ethylhexyl diglycol (hereinafter, sometimes also referred to as 2-EHDG) was used as the phase-changing probe, and an amount of the phase-changing probe required until a phase structure of the standard sample changed from a micellar solution phase (Wm phase) to a mixed system of a reversed micellar oil solution phase (Om phase) and a water phase (W phase) was taken as the quantitative value. […]

Row | Compound | Quantitative value (g) of phase-changing probe (2-EHDG) [1] [g] | Solution physical property index (corresponding HLB) from calibration curve 10 [1] | Solution physical property index (corresponding HLB) from calibration curve [2]
1 | Sodium linear alkyl (main constituent: C12) benzene sulfonate | 19.56 | 17.83 | 
2 | CCCCCCCCCCCC[N+](C)(C)CC(O)CS(=O)(=O)[O-] (centres unmarked) [N-lauryl-N,N-dimethyl-N-(2-hydroxysulfopropyl)ammonium sulfobetaine] |  |  | 11.30
3 | CCCCCCCCCCCC[N+](C)(C)[O-] [Lauryl dimethylamine oxide] | 5.04 | 11.73 | 
